Test results published in US12135326B2 (priority 2019, dated 2024).

Biological target: ClyA-RR nanopore (Salmonella typhi, UniProt Q8Z727, C285S/C87A/D64R/E103G/F166Y/I203V/K294R/L99Q/S110R)
Experiment: DOP recording of DNA translocation through ClyA-RR nanopore
Conditions: 2.25 M KCl cis, 1.5 M CaCl2 trans

## TTGGCATGTCAGAATGTTAGAATGTTAGAATGTTAGAATGTTAGAATGTTAGAATGTTTCAGATCTCACTATCAAAAA
2 μM in droplet
  mean value of % F (blockade level % Fb, center value±FWHM): 0.583±0.014
electrode-free DOP
  fluorescence emission characteristics with ClyA-RR (in words): different percentage blockade depths and long event dwell time
